Experimental data as given in PMC9468336, “The choanoflagellate pore-forming lectin SaroL-1 punches holes in cancer cells by targeting the tumor-related glycosphingolipid Gb3” (Communications Biology, 2022).

Target: T1, hemolytic activity of SaroL-1 on rabbit erythrocytes (Salpingoeca rosetta, UniProt F2UID9)
T1 sequence (F2UID9 1-329): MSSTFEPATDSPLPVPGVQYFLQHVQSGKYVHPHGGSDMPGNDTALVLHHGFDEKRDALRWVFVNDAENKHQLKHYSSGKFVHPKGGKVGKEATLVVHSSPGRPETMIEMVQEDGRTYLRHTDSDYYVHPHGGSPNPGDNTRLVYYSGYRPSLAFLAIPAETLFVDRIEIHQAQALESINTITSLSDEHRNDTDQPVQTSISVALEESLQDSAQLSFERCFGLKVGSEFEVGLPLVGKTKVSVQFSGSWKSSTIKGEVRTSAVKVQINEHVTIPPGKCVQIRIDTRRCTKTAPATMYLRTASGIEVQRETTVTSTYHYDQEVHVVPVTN
Test: Inhibition of hemolytic activity (IHA) of SaroL-1 by carbohydrates
Assay type: cell-based
Details: SaroL-1 217 nM pre-incubated with carbohydrate; read-out: IC50 of inhibition of hemolysis
Procedure: Both HA and IHA assays were performed in U-shaped 96-well microtiter plates. In both cases, a control negative experiment was performed with Buffer A added to erythrocyte solution (2% final concentration), and the resulting value was subtracted from all data.
IHA was performed in U-shaped 96-well microtiter plates. […] 4% rabbit erythrocytes were added to the mixture in a 1:1 ratio and incubated for 1–2 h at 37 °C. The samples were centrifuged, 2600 × g for 15 min at RT, and the absorbance of the supernatant was measured at 540 nm by a Tecan reader.

For `OC[C@H]1O[C@H](OCC2O[C@@H](O)[C@H](O)[C@@H](O)[C@@H]2O)[C@H](O)[C@@H](O)[C@H]1O` (stereo partly shown) [melibiose], which IC50 is on record?
The IC50 was 1500 µM.
